Marks after values point to notes of the source that are not given here.
Tests used:
[1] = system: LoVo (human colon cancer) cells; assay: Tumor-growth inhibition in vivo, LoVo xenograft in BALB/c nu/nu mice; conditions: capecitabine 359 mg/kg (67% of MTD) orally once daily for 14 days
[2] = Intestinal toxicity and myelotoxicity in mice bearing LoVo tumors; conditions: erlotinib 100 mg/kg/day, capecitabine 359 mg/kg, alone or combined, once daily for 14 days, day 15, mean ± SD, n=5
[3] = system: A-431 (human vulval epidermal cancer) cells; assay: Tumor-growth inhibition in vivo, A-431 xenograft in BALB/c nu/nu mice; conditions: capecitabine 359 mg/kg (66% of MTD) orally once daily for 14 days
[4] = Tolerability (body weight, deaths, MTD) in tumor-bearing mice; format: in vivo, BALB/c nu/nu mice; conditions: mice bearing LoVo tumors; erlotinib 50, 75, 100 or 125 mg/kg once daily for 2 weeks
From the text: Male and female, 4-6-weeks old BALB/c nu/nu mice were obtained from Nippon Clea (Tokyo, Japan). All animals were allowed to acclimatize and recover from shipping-related stress for 1 week prior to the study. The health of the mice was monitored daily by observation.

Q: What does the source list for `CCCCCOC(=O)Nc1nc(=O)n([C@@H]2O[C@H](C)[C@@H](O)[C@H]2O)cc1F` [Capecitabine, capecitabine]?
A: tumor-growth inhibition ([1]; day 15): 43* %; tumor-growth inhibition ([1]; day 15, listed as capecitabine): 43%; WBC count [2]: 3.9 ± 0.5 ×10^6 cells/ml; tumor-growth inhibition ([3]; day 15): 76** %; tumor-growth inhibition ([3]; day 15, listed as capecitabine): 76%

Q: With `C#Cc1cccc(Nc2ncnc3cc(OCCOC)c(OCCOC)cc23)c1` [Erlotinib, [6,7-bis(2-methoxyethoxy)-4-quinazolin-4-yl]-(3-ethynylphenyl)amine] as the compound, how does the WBC count [2] read?
A: 5.0 ± 0.5 ×10^6 cells/ml

Q: And the “weight loss (of the body weight at start of treatment)” value [4]?
A: ≤ 20%

Reference: patent US20060178387A1, “Combined treatment with capecitabine and an epidermal growth factor receptor kinase inhibitor” (priority 2005, published 2006)
